Experimental data reported in patent US20160213657A1, “PHARMACEUTICAL COMPOSITION FOR TREATMENT AND/OR PREVENTION OF PULMONARY DISEASE” (UBE INDUSTRIES, LTD., priority 2013, published 2016).

By UniProt entry, the sequences of proteins in these tests, tags left out. Where a name states a change or a piece, a line headed by the entry shows the natural chain unless it says otherwise.
UniProt P43116: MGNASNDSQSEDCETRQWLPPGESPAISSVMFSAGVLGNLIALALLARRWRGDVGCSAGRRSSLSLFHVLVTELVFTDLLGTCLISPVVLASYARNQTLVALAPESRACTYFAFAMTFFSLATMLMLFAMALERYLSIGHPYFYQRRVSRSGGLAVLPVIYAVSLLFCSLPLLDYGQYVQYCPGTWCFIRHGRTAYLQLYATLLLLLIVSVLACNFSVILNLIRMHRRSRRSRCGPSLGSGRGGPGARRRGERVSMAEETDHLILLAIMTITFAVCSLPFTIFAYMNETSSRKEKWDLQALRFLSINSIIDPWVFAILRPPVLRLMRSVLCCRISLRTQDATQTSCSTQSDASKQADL

Target: human EP2 receptor (Homo sapiens, UniProt P43116)
Test: Measurement of EP2 receptor binding action ([3H]prostaglandin E2 displacement)
Settings: membrane fraction of HEK293 cells expressing human EP2 receptor; [3H]prostaglandin E2 10 nM; 30° C., 60 minutes
Protocol: Measurement of EP2 Receptor Binding Action
The membrane fraction was collected on glass fiber filter paper (GF/B, manufactured by Whatman) using a cell harvester (M30R, manufactured by Brandel), and after washing with a buffer solution (10 mM MES-KOH (pH 6.0), 10 mM MgCl2), radioactivity was measured with a liquid scintillation analyzer (2000CA, manufactured by Packard).
Ki=IC50/(1+([^3H]prostaglandin E2 concentration/Kd))
Furthermore, the dissociation constant (Kd value) was calculated by Scatchard analysis.

Compound	Ki [nM]
CCOc1cccc(-c2ccc(CN(Cc3cccc(NCC(=O)O)n3)S(=O)(=O)c3ccccn3)cc2)n1 [Example 12, (6-{[4-(6-Ethoxypyridin-2-yl)benzyl](pyridin-2-ylsulfonyl)aminomethyl}-pyridin-2-ylamino)acetic acid]	0.94
CCOc1cccc(-c2ccc(CN(Cc3cccc(NCC(=O)O)n3)S(=O)(=O)c3cccs3)cc2)c1 [Example 11, {6-[(3′-Ethoxybiphenyl-4-ylmethyl)(thiophen-2-ylsulfonyl)aminomethyl]-pyridin-2-ylamino}acetic acid]	0.79
